# HCMV UL50-53 inh = inhibitors of HCMV UL50-UL53 interaction, biochemical, HTRF; normalized percent inhibition; inhibition, % (test concentration not listed); actives 0.15% (n = 190,000); in the data active means inhibition above about 27%, passing the limit was not always enough
# GIV Gai3 FP = inhibitors of GIV GBA-motif binding to rat Galpha-i3. actives 0.42% (n = 210,000). Galpha-i3/FITC-GIV peptide fluorescence polarization, 90 min; active compounds read low; scaled: aluminum fluoride 0%, vehicle 100%. AID 1224905. percent of control (FP), % (no concentration beside the values). P08753;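 active means replicate mean at 85% of control or lower, very high polarization wells dropped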;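 further: wells of about 15 µL received 100 nL stock; the first replicate is given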
# GIV Gai FP conf = inhibitors of GIV peptide binding to Galpha-i3, confirmation, biochemical, fluorescence polarization, FITC-GIV peptide, rat Galphai3; shares compounds with GIV Gai3 FP; active compounds read low; fluorescence polarization, mP at 100 µM; actives 38% (n = 580); AID 1259350, 2017;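 active means inhibition score of 15 or more, meaning 100 minus mean polarization as percent of control over three replicates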;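 further: lower mP means peptide displaced from Galphai3 so more inhibition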
# GIV Gai AS conf = inhibitors of GIV binding to Galpha-i3, confirmation, orthogonal assay for GIV-Galpha-i inhibitor project, biochemical, AlphaScreen, His-GIV, GST-Galphai3 | shares compounds with GIV Gai3 FP | purified proteins, 90 min; active compounds read low | AlphaScreen counts at 100 µM | actives 39% (n = 580) | AID 1259351, 2017;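 active means inhibition score at or above a set limit, where the score is 100 minus the three-replicate mean percent of control signal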
# Numbers stand for hits; . = inactive; / = not tested or not shown. Compounds with a hit are over-represented: about 0.43% of the library has one in this group of screens.
SMILES,HCMV UL50-53 inh,GIV Gai3 FP,GIV Gai FP conf,GIV Gai AS conf
COC(=O)C1=C(C(=O)OC)SC(=C2C(=S)C(C)(C)N(C(=O)CN3C(=O)C4CCCCC4C3=O)c3cc(C)ccc32)S1 (configuration not stated),.,.,/,/
Cc1[nH]n(-c2ccccc2)c(=O)c1C(c1cccc([N+](=O)[O-])c1)c1c(C)[nH]n(-c2ccccc2)c1=O,/,.,/,/
CCCCCCCOc1ccc(C(c2c(C)[nH]n(-c3ccccc3)c2=O)c2c(C)[nH]n(-c3ccccc3)c2=O)cc1,/,82.0,.,.
Cc1[nH]n(-c2ccccc2)c(=O)c1C(c1cccc(Br)c1)c1c(C)[nH]n(-c2ccccc2)c1=O,/,73.6,.,23480
Cc1[nH]n(-c2ccccc2)c(=O)c1C(c1ccc(N(C)C)cc1)c1c(C)[nH]n(-c2ccccc2)c1=O,/,.,/,/
Cc1[nH]n(-c2ccccc2)c(=O)c1C(c1ccccc1)c1c(C)[nH]n(-c2ccccc2)c1=O,/,77.1,.,18252
Cc1[nH]n(-c2ccccc2)c(=O)c1C(c1ccc(OCc2ccccc2Cl)cc1)c1c(C)[nH]n(-c2ccccc2)c1=O,/,.,/,/
CCOc1ccccc1C(c1c(C)[nH]n(-c2ccccc2)c1=O)c1c(C)[nH]n(-c2ccccc2)c1=O,/,.,/,/
COc1ccccc1C(c1c(C)[nH]n(-c2ccccc2)c1=O)c1c(C)[nH]n(-c2ccccc2)c1=O,/,73.9,.,.
CCC(C)NC(=O)c1noc2c1COc1ccc(C)cc1-2 (configuration not stated),.,.,/,/
Cc1nc(-c2cc(S(=O)(=O)NCc3ccc(F)c(Cl)c3)c(C)s2)cs1,/,.,/,/
Cc1cc(F)ccc1NS(=O)(=O)c1cc(-c2nc(C)c(C)s2)sc1C,/,.,/,/
Cc1cn2c(n1)-c1ccccc1C2,/,.,/,/
CNc1cc(C(C)(C)C)nc2c(-c3ccc(F)cc3)c(C)nn12,.,.,/,/
CC(=O)Oc1ccc(N(C(C)=O)S(=O)(=O)c2cccs2)c(C)c1,.,/,/,/
O=C1Nc2cc(C(=O)N3CCc4ccccc4C3)ccc2N2CCCCC12 (configuration not stated),.,.,/,/
O=c1cc(CN2CCOCC2)nc2nc(NCc3ccccc3Cl)[nH]n12,.,.,/,/
CC1CC(=O)C2=C(OC(N)=C(C#N)C2c2ccccc2C(F)(F)F)O1 (configuration not stated),.,/,/,/
CN(C)c1ccc(-n2nnnc2SCC(=O)c2ccccc2)cc1,.,.,/,/
Cc1[nH]n(-c2ccccc2)c(=O)c1C(c1cccc(O)c1)c1c(C)[nH]n(-c2ccccc2)c1=O,/,66.5,50.7,11539
COc1cc(C(c2c(C)[nH]n(-c3ccccc3)c2=O)c2c(C)[nH]n(-c3ccccc3)c2=O)ccc1O,/,.,/,/
CCOC(=O)C1=C(C)N=c2s/c(=C\c3cc(C)n(-c4ccc([N+](=O)[O-])cc4)c3C)c(=O)n2C1c1ccc(OC)cc1 (configuration not stated),/,.,/,/
CCOc1ccc(NC2=CC(c3ccc(C(C)(C)C)cc3)N(c3ccc(OCC)cc3)C2=O)cc1 (configuration not stated),/,.,/,/
O=c1c(=N\O)/c(=N/O)c(=O)c2ccccc12,97.2,58.7,63.8,4729
O=c1c(=Nc2ccccc2O)c(=O)c2ccccc12,.,/,/,/
SMILES,HCMV UL50-53 inh,GIV Gai3 FP,GIV Gai FP conf,GIV Gai AS conf
COc1ccc2c(c1)N(C1CCCCC1)/C(=C1/SC(=S)N(C)C1=O)S2,/,.,/,/
COc1ccc2c(c1)N(C)/C(=C1/SC(=S)N(C)C1=O)S2,.,.,.,.
COc1ccc(-c2nc(-c3ccc4c(c3)[nH]c(=O)c(=O)n4C)no2)cc1OC,.,.,.,.
COc1ccc(-c2nc(-c3ccc4c(c3)[nH]c(=O)c(=O)n4C)no2)cc1,.,.,/,/
C/C(=N\NC(=O)c1ccc(Br)o1)c1ccc(N)cc1,.,.,/,/
COc1ccc(NC(=O)CCc2c(C)nc3c(-c4ccc(F)cc4)c(C)nn3c2C)c(OC)c1,.,.,.,.
COc1ccc(OC)c(NC(=O)CCc2c(C)nc3c(-c4ccccc4)c(C)nn3c2C)c1,.,.,/,/
CC1=CC(=C2C(=O)c3ccccc3C2=O)C=C(C)N1C(C)C,.,72.7,.,.
CC1=CC(=C2C(=O)c3ccccc3C2=O)C=C(C)N1CCO,.,.,/,/
O=C1CC(C(=O)Nc2ccccc2)N=C(N2CCc3ccccc3C2)N1 (configuration not stated),.,81.2,.,.
CN1CCN(C2=NC(C(=O)Nc3ccccc3)CC(=O)N2)CC1 (configuration not stated),.,.,/,/
O=C1/C(=C/c2cccnc2)CCCC/C1=C\c1cccnc1,.,/,/,/
O=C1/C(=C/c2ccncc2)CCC/C1=C\c1ccncc1,.,51.5,51.1,18754
CCC1CCCCN1C(=O)Nc1ccccc1 (configuration not stated),.,.,/,/
O=S(=O)(c1ccccc1)N1CCCC(c2nc(-c3cccs3)no2)C1 (configuration not stated),.,.,/,/
Cc1ccc(NC(=O)c2sc3nc4c(c(-c5ccco5)c3c2N)CCCC4)cc1,/,.,/,/
Cc1ccc(NC(=O)c2sc3nc4c(c(-c5ccco5)c3c2N)CCC4)cc1,/,76.1,.,.
O=C(Nc1ccc(N2CCOCC2)c2nonc12)c1ccco1,.,.,/,/
Nc1ccc(N2CCOCC2)c2nonc12,.,63.0,46.3,2710
Cc1ccc(C)n1-c1ccc(SCC(=O)O)cc1,55.5,6.4,16.8,2022
COc1ccc(SCC(=O)O)cc1,.,/,/,/
COC(=O)c1cc(C)sc1NC(=O)CN1CCN(Cc2ccccc2)CC1,.,.,/,/
O=C1CCCC2=C1C(c1ccco1)N(C(=O)c1ccccc1)c1ccccc1N2 (configuration not stated),.,.,/,/
COc1ccc(-c2nc(N3CCC(C)CC3)nc3nn4c(C)cc(C)nc4c23)cc1,.,.,.,.
Cc1cc(C)n2nc3nc(N4CCCC4)nc(-c4ccccc4)c3c2n1,.,.,/,/
SMILES,HCMV UL50-53 inh,GIV Gai3 FP,GIV Gai FP conf,GIV Gai AS conf
O=C(Nc1cccc(-c2cn3cccnc3n2)c1)c1ccccc1F,/,.,/,/
CCOC(=O)C(CC)n1cnc2c(nnn2Cc2ccc(C)cc2)c1=O (configuration not stated),.,.,/,/
N#Cc1c(NC(=O)c2ccc3c(c2)OCO3)sc2c1CCC2,.,.,/,/
CCN1/C(=C\C=C\c2n(CC)c3cc(Cl)c(Cl)cc3[n+]2CCCS(=O)(=O)[O-])N(CCCS(=O)(=O)O)c2cc(Cl)c(Cl)cc21,/,79.2,.,10331
Cc1cc2cc(CNC(=O)COc3ccc4ccccc4c3)ccc2n1C,/,.,/,/
Cc1cccc(-c2nc3nc(C)cc(N4CCN(c5ccccc5)CC4)n3n2)c1,.,.,/,/
Cc1ccc(-c2nc3nc(C)cc(N4CCN(c5cccc(C)c5)C(C)C4)n3n2)cc1 (configuration not stated),.,73.5,.,.

# High-throughput results (PubChem)
